Experimental data taken from PMC4411359 (Genomics, Proteomics & Bioinformatics, 2014).

Protein sequences, listed by entry. Tags and fused reporters are not part of them.
UniProt Q92793, whole entry: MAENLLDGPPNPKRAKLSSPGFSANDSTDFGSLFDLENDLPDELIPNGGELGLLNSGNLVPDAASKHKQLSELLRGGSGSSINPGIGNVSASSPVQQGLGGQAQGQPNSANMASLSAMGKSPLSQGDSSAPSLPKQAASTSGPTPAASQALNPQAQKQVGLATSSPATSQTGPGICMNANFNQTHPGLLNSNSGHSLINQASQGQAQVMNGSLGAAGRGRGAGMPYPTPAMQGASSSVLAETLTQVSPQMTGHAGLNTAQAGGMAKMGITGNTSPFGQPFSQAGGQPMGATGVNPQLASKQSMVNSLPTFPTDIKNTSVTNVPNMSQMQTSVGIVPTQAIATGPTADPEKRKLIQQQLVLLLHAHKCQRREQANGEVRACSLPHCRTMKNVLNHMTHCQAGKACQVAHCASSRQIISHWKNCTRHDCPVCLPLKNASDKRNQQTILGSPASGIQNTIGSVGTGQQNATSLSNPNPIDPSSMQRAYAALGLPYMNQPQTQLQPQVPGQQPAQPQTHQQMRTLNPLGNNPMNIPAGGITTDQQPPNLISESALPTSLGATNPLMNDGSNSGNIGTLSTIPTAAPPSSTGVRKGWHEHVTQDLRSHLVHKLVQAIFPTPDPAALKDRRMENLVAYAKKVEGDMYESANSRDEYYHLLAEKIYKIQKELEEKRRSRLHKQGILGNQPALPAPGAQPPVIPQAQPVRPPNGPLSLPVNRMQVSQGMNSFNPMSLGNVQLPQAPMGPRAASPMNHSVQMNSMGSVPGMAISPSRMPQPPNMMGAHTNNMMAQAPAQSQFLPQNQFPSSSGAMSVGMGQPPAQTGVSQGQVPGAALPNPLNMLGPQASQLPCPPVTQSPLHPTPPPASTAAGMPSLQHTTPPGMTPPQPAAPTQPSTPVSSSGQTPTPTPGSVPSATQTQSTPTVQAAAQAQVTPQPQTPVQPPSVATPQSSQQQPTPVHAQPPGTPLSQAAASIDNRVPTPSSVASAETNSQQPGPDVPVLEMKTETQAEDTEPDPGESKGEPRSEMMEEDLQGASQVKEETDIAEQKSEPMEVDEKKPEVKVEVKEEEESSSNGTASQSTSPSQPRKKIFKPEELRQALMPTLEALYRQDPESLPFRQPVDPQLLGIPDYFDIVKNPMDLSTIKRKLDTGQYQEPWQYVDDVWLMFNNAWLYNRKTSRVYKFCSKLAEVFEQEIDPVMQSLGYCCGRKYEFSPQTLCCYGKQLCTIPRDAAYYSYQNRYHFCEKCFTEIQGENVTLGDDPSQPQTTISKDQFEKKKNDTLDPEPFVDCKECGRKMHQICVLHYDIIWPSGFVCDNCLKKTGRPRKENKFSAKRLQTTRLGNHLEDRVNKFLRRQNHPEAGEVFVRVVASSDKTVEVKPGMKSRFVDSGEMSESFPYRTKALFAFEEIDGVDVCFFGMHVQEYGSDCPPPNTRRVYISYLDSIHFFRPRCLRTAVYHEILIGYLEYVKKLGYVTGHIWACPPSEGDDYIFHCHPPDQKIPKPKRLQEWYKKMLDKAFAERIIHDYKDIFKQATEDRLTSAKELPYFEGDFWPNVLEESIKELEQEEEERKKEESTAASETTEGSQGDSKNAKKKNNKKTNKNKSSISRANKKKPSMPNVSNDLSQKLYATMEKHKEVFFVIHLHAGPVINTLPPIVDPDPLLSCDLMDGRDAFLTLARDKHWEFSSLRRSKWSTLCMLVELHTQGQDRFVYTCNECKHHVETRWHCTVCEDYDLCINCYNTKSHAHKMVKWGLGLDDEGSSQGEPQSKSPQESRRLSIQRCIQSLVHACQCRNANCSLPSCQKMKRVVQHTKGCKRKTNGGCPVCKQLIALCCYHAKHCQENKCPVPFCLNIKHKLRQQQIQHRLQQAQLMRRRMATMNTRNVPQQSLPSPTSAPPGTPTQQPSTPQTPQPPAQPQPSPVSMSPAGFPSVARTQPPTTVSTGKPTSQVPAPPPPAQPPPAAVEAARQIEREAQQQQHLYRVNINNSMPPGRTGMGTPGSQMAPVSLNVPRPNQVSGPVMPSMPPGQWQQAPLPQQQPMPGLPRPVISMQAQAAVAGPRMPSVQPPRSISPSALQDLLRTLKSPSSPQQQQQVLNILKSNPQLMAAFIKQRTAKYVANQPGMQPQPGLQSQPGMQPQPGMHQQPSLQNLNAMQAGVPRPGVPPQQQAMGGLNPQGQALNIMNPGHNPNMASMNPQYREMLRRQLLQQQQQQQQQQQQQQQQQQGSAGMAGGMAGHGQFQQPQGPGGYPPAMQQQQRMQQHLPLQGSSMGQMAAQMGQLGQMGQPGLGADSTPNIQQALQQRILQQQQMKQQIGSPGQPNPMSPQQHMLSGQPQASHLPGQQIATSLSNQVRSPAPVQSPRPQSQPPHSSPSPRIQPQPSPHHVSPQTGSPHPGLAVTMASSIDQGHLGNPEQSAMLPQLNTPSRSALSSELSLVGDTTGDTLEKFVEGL

Molecular target: YFP-tagged CREB-binding protein (UniProt Q92793)
Test: MST

B1: HA-tagged human thymine DNA glycosylase, wild type (enzyme, UniProt Q13569 1-410, looked up)
chain: MEAENAGSYSLQQAQAFYTFPFQQLMAEAPNMAVVNEQQMPEEVPAPAPAQEPVQEAPKGRKRKPRTTEPKQPVEPKKPVESKKSGKSAKSKEKQEKITDTFKVKRKVDRFNGVSEAELLTKTLPDILTFNLDIVIIGINPGLMAAYKGHHYPGPGNHFWKCLFMSGLSEVQLNHMDDHTLPGKYGIGFTNMVERTTPGSKDLSSKEFREGGRILVQKLQKYQPRIAVFNGKCIYEIFSKEVFGVKVKNLEFGLQPHKIPDTETLCYVMPSSSARCAQFPRAQDKVHYYIKLKDLRDQLKGIERNMDVQEVQYTFDLQLAQEDAKKMAVKEEKYDPGYEAAYGGAYGENPCSSEPCGFSSNGLIESVELRGESAFSGIPNGQWMTQSFTDQIPSFSNHCGTQEQEEESHA
- fold increase of affinity with RA-activated RARα against TDG alone: > 4 fold
